This assay has as its target T1, IPP heterotrimer complex (ILK, PINCH-1, α-parvin) (human, UniProt Q13418 1-452; Q9NVD7 1-372; P48059 1-325).
T1 construct: human integrin-linked kinase (ILK), residues 1-452; human α-parvin, residues 1-372; human PINCH-1, residues 1-325; The complex is called hexahistidine-tagged; also called IPP complex; ILK-PINCH-Parvin; copies: + +
Kind of assay: SEC; Superose 6 10/300 GL; purified IPP heterotrimer mixed with purified Kindlin-2 and Rsu-1, 4 °C at least 2 h; 20 mM Tris pH 7.5, 150 mM NaCl, 5% glycerol, 0.2 mM TCEP; peak reloaded on the same column. The conditions noted are these: both partners purified. On the technique in general: In gel filtration, larger molecules generally elute earlier.

The chains behind the UniProt entries cited, without tags or fusion partners.
UniProt Q13418, whole entry, chain 1 of 3: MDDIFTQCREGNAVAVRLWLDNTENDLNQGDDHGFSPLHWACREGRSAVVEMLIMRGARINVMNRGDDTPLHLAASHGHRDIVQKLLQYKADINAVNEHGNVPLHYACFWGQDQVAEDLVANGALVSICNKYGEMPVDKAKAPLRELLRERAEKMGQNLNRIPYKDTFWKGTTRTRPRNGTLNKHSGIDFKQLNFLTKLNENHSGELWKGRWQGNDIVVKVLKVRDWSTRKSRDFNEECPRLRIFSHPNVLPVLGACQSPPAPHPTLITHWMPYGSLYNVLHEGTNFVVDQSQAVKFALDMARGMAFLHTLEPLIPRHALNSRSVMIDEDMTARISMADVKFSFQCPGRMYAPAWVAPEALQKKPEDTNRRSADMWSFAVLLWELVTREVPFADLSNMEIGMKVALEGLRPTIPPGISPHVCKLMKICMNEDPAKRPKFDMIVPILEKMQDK
IPP heterotrimer complex (ILK, PINCH-1, α-parvin), UniProt Q9NVD7, whole entry, chain 2 of 3: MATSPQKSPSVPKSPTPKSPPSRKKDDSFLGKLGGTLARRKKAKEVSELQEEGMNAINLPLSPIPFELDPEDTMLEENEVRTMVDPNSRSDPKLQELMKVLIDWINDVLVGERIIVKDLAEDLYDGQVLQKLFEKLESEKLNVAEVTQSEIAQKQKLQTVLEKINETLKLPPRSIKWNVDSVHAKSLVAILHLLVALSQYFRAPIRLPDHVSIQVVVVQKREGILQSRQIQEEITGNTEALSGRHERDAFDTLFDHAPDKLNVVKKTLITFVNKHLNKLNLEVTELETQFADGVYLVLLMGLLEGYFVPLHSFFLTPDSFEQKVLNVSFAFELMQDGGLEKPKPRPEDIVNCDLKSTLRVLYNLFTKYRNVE
IPP heterotrimer complex (ILK, PINCH-1, α-parvin), UniProt P48059, whole entry, chain 3 of 3: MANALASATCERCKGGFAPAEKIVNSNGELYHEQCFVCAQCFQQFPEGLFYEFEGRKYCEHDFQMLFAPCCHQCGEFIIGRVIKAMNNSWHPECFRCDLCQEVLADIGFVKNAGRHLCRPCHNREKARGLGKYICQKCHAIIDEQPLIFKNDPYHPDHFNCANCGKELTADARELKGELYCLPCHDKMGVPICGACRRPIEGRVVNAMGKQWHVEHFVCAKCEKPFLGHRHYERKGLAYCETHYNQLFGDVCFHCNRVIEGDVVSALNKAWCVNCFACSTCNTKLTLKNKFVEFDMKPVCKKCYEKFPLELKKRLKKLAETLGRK

B1: Kindlin-2 (residues 1-680) (natural protein, human, UniProt Q96AC1 1-680, looked up)
chain: MALDGIRMPDGCYADGTWELSVHVTDLNRDVTLRVTGEVHIGGVMLKLVEKLDVKKDWSDHALWWEKKRTWLLKTHWTLDKYGIQADAKLQFTPQHKLLRLQLPNMKYVKVKVNFSDRVFKAVSDICKTFNIRHPEELSLLKKPRDPTKKKKKKLDDQSEDEALELEGPLITPGSGSIYSSPGLYSKTMTPTYDAHDGSPLSPTSAWFGDSALSEGNPGILAVSQPITSPEILAKMFKPQALLDKAKINQGWLDSSRSLMEQDVKENEALLLRFKYYSFFDLNPKYDAIRINQLYEQAKWAILLEEIECTEEEMMMFAALQYHINKLSIMTSENHLNNSDKEVDEVDAALSDLEITLEGGKTSTILGDITSIPELADYIKVFKPKKLTLKGYKQYWCTFKDTSISCYKSKEESSGTPAHQMNLRGCEVTPDVNISGQKFNIKLLIPVAEGMNEIWLRCDNEKQYAHWMAACRLASKGKTMADSSYNLEVQNILSFLKMQHLNPDPQLIPEQITTDITPECLVSPRYLKKYKNKQITARILEAHQNVAQMSLIEAKMRFIQAWQSLPEFGITHFIARFQGGKKEELIGIAYNRLIRMDASTGDAIKTWRFSNMKQWNVNWEIKMVTVEFADEVRLSFICTEVDCKVVHEFIGGYIFLSTRAKDQNESLDEEMFYKLTSGWV
notes: human kindlin-2, residues 1-680; source: SUMO-tag cleaved by Ulp1
With B1, the binding result is “binds”.

B2: Ras suppressor-1 (Rsu-1), wild type, full length (natural protein, human, UniProt Q15404 1-277, looked up)
chain: MSKSLKKLVEESREKNQPEVDMSDRGISNMLDVNGLFTLSHITQLVLSHNKLTMVPPNIAELKNLEVLNFFNNQIEELPTQISSLQKLKHLNLGMNRLNTLPRGFGSLPALEVLDLTYNNLSENSLPGNFFYLTTLRALYLSDNDFEILPPDIGKLTKLQILSLRDNDLISLPKEIGELTQLKELHIQGNRLTVLPPELGNLDLTGQKQVFKAENNPWVTPIADQFQLGVSHVFEYIRSETYKYLYGRHMQANPEPPKKNNDKSKKISRKPLAAKNR
notes: after thrombin cleavage a few of its residues probably remain (surmised); also called Rsu-1 (WT); Rsu-1 WT; not shown: His6, N-terminal, cleaved
For B2, the binding result is on record as “binds”.

Values taken from publication PMC8141872 (The Journal of Biological Chemistry, 2021).
